Data taken from patent US8450325B2, “Methods for reducing the recurrence of cardiac arrhythmia” (ChanRx Corp., priority 2002, dated 2013).

Amino acid sequences for entries named in this document (tags omitted). A change or cut given only in a name is not applied to a line headed by its entry.
UniProt Q12809: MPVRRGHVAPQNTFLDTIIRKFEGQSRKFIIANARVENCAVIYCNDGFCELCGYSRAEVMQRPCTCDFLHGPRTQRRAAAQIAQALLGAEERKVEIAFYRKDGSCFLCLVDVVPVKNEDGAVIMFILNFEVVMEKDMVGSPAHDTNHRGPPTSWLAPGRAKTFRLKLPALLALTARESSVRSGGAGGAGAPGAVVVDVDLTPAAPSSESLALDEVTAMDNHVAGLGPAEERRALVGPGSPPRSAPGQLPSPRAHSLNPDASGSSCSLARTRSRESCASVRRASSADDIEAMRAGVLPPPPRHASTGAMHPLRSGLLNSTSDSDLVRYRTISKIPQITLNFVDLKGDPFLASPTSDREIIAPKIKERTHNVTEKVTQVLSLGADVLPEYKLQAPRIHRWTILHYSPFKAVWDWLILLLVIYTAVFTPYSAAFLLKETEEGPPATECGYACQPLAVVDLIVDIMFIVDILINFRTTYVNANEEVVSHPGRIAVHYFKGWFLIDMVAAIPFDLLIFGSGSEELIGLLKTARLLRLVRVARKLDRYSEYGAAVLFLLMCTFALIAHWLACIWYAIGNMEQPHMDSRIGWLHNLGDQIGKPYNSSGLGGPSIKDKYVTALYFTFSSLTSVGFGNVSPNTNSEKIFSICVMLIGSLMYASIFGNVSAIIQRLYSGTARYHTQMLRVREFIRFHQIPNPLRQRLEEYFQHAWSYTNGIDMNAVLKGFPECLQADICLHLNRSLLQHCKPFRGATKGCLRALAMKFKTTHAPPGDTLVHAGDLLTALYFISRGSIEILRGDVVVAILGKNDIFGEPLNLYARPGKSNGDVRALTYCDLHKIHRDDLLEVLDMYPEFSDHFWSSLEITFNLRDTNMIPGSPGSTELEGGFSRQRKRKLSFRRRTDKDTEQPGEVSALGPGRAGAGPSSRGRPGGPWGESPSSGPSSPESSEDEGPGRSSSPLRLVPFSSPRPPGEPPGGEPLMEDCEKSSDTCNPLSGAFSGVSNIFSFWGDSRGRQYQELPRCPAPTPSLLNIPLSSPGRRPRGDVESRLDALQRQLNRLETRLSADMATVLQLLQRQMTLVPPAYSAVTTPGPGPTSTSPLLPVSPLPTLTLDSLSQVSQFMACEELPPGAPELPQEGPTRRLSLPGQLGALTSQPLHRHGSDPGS

Molecular target: hERG (IKr) channel (Homo sapiens, UniProt Q12809)
Test: cell-based

SMILES: Fc1ccc(C(OCCN2CCN(CCCc3ccccc3)CC2)c2ccc(F)cc2)cc1 [Vanoxerine, vanoxerine]
- pIC50: 7.82

pIC50: −log10 of the molar value.
